The source of these data is PubChem BioAssay AID720643 (The Scripps Research Institute Molecular Screening Center, 2013).

The chains behind the UniProt entries cited, without tags or fusion partners.
UniProt P35363, whole entry, looked up: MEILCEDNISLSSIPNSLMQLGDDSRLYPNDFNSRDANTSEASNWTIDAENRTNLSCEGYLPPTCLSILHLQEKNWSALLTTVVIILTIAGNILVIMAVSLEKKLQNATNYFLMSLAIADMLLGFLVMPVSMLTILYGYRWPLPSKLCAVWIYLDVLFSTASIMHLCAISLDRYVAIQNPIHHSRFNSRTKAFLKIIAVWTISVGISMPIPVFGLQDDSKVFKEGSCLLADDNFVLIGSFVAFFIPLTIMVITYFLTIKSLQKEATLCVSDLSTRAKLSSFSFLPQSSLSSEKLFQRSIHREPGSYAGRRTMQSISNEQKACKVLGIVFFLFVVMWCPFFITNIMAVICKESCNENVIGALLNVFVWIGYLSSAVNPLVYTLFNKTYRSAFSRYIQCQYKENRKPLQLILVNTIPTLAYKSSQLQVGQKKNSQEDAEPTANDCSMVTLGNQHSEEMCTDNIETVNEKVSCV

Active and inactive are the calls of the source.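 The calls were made as follows: active = EC50 of 10 µM or lower; inactive = EC50 above 10 µM.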

The target in the assay is 5-hydroxytryptamine receptor 2A (Mus musculus) (UniProt P35363). As to the kind of experiment: agonist EC50 at mouse 5-HT2A receptor – cell-based, luminescence, CHO-K1, powder samples, dose response, late-stage follow-up (AID 720643). The settings on record: CHO-K1 mHTR2A beta-arrestin PathHunter luminescence.

As usually defined, the EC50 is the concentration giving half of the maximal effect.

As for `CCCN1C[C@H](CSC)C[C@@H]2c3cccc4[nH]cc(c34)C[C@H]21`, the 50% effective concentration (EC50) was 0.959 µM.
Then `CC(CCc1ccc(O)cc1)NCCc1ccc(O)c(O)c1` (configuration not stated), with inactive: > 76.1 µM.
